Experiments:
[1] = test system: Hct116 resistant cell line clone #6 (p97 A528T); assay: GI50 fold-change, resistant clone #6 vs parental; format: cell-based, human; details: Clone #6, Hct116, resistance generated with compound 2, G1582 / A528T; 72 hrs
Method: (§1) Dose titration of test compounds were conducted in Hct116, DLD-1, or LoVo cell lines. In brief, cells were plated in 384-well plates and a selected candidate drug compound was added in a 10-point 2-fold serial dilution. […] Data was fit to a four-parameter sigmoidal curve to determine compound doses that result in 50% decrease in viability (GI50). Hct116 cells were plated at 50,000 cells per 15 cm dish and treated with GI50-GI90 doses of test compound for 2-4 weeks until individual colonies of cells were visible on the plate.

The chains behind the UniProt entries cited, without tags or fusion partners.
UniProt P55072, whole entry Q473P: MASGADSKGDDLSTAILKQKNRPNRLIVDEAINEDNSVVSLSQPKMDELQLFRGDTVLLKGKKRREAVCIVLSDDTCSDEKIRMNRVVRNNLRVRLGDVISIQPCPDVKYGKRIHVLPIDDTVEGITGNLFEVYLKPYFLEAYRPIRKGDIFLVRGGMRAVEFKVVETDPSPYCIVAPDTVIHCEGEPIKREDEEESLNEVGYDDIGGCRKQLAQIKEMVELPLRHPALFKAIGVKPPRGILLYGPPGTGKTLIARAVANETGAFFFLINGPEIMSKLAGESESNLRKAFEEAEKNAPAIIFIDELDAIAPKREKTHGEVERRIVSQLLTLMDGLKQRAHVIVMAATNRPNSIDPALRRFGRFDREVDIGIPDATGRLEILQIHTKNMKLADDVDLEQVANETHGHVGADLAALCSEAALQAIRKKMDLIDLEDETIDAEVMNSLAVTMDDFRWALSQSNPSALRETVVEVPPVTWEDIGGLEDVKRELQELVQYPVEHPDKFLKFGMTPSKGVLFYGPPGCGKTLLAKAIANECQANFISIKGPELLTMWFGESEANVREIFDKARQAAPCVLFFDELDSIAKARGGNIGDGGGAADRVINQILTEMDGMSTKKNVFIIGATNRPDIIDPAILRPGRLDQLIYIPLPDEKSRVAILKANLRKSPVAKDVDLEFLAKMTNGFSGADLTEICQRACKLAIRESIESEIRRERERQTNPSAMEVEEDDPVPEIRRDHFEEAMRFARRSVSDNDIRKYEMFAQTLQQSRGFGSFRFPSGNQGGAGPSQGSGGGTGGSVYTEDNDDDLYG
UniProt P55072, whole entry A659T: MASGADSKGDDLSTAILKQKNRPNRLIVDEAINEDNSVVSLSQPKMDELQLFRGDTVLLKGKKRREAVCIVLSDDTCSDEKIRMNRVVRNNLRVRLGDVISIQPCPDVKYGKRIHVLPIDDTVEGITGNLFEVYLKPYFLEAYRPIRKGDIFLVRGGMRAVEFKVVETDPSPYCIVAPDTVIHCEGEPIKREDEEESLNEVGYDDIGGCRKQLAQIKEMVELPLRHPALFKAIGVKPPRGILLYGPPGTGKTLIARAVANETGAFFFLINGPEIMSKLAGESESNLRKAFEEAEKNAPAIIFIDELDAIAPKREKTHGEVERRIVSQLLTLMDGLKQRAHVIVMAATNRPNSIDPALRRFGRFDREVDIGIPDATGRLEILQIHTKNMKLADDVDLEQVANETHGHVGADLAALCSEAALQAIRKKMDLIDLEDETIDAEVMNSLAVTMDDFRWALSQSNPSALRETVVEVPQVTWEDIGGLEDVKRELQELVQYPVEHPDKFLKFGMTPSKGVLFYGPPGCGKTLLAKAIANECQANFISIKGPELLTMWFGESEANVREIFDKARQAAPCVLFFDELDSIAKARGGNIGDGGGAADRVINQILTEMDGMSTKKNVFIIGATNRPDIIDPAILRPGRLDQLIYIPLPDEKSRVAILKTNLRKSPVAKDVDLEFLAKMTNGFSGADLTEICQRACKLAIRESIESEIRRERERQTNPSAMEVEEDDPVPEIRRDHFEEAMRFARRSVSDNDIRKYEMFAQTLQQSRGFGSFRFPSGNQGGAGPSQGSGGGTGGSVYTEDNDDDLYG
UniProt P55072, whole entry G481A: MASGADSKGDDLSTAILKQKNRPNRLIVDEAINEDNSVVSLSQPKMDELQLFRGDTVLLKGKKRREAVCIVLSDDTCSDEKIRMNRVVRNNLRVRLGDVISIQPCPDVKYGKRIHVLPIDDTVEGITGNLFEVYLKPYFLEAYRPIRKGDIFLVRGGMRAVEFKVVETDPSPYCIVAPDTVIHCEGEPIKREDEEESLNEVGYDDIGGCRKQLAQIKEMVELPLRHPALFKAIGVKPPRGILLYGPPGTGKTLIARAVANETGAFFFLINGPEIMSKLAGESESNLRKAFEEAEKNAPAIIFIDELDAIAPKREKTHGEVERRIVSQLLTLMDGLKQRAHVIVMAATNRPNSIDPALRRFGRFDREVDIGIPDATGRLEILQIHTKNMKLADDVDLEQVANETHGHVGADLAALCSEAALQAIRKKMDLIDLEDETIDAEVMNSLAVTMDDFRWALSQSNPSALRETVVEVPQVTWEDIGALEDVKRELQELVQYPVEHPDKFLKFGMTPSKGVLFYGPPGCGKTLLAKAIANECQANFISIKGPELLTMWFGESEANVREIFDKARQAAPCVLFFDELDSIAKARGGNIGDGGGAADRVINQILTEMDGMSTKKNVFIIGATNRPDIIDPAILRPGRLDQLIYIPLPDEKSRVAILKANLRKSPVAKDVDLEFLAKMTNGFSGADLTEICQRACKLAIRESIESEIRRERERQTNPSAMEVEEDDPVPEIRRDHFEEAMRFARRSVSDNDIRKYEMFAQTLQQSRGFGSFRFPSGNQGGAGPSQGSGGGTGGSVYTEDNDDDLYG
UniProt P55072, whole entry D649A: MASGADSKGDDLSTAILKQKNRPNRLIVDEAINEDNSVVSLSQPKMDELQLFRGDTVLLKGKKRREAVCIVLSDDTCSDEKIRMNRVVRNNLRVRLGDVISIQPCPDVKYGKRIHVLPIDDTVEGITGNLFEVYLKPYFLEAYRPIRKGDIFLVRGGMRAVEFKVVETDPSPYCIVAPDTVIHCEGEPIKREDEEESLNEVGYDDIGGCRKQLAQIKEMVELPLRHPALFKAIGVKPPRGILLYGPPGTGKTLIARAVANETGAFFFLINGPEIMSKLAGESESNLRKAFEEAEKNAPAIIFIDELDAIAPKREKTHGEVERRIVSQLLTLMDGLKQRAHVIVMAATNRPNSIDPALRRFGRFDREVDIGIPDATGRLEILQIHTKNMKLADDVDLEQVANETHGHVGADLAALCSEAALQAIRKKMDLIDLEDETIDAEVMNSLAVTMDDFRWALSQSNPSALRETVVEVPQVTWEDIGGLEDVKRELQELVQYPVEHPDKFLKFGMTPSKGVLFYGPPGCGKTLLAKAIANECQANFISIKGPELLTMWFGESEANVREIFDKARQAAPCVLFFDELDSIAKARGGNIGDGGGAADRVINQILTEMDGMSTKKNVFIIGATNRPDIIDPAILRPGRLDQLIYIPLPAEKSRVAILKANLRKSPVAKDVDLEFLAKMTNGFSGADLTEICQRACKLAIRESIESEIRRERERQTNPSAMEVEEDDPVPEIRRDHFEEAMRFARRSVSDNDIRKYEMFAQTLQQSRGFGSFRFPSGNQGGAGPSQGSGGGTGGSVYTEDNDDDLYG
UniProt P55072, whole entry E470D: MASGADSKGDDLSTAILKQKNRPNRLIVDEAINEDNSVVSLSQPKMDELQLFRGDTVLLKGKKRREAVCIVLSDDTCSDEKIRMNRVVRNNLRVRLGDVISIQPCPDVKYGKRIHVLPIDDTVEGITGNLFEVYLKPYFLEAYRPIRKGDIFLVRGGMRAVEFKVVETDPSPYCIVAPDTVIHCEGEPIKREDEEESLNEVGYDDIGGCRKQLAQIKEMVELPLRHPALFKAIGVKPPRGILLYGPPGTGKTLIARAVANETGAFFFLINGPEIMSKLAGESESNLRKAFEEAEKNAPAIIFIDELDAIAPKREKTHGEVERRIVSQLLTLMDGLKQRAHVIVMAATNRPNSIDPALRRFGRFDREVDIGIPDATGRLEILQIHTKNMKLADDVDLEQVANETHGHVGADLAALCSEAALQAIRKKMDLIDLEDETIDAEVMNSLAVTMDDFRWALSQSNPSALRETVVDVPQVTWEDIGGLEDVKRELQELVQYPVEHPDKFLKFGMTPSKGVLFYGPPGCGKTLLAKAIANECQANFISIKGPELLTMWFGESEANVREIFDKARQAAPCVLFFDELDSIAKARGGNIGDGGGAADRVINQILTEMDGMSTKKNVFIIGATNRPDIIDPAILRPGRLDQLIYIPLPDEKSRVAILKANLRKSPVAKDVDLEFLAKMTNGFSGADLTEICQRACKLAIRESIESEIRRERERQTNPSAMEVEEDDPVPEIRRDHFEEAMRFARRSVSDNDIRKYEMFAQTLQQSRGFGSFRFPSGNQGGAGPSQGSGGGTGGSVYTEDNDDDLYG
UniProt P55072, whole entry T688A: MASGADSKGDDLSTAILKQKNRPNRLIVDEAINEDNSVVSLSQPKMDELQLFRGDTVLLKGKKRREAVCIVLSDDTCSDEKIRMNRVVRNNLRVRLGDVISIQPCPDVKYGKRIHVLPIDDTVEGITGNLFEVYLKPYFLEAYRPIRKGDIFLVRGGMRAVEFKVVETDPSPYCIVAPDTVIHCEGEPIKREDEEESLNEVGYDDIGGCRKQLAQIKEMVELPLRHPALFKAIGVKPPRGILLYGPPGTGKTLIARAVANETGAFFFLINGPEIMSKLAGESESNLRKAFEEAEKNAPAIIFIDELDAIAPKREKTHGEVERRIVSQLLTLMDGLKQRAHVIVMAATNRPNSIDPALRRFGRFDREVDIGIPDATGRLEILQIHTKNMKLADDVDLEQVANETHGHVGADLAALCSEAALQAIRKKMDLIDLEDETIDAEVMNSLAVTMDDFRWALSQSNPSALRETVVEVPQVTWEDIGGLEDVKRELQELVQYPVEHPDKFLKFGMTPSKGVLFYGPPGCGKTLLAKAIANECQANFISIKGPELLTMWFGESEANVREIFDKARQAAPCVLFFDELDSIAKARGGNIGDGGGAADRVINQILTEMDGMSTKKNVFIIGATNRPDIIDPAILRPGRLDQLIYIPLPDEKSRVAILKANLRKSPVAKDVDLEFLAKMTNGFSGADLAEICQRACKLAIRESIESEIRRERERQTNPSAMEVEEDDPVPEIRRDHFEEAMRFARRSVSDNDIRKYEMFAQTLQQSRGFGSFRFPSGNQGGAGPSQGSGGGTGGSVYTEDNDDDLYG

[2] = test system: Hct116 resistant cell line clone #90 (p97 Q473P); assay: GI50 fold-change, resistant clone #90 vs parental; format: cell-based, human; details: Clone #90, Hct116, resistance generated with compound 4, A1418C / Q473P; 72 hrs
Method: (§2) Dose titration of test compounds were conducted in Hct116, DLD-1, or LoVo cell lines. In brief, cells were plated in 384-well plates and a selected candidate drug compound was added in a 10-point 2-fold serial dilution.

[3] = test system: Hct116 resistant cell line clone #22 (p97 N660D); assay: GI50 fold-change, resistant clone #22 vs parental; format: cell-based, human; details: Clone #22, Hct116, resistance generated with compound 4, A1978G / N660D; 72 hrs
Method: as §1

[4] = test system: Hct116 resistant cell line clone #3 (p97 G481A); details: Clone #3, Hct116, resistance generated with compound 2, G1442C / G481A; 72 hrs
[5] = test system: Hct116 resistant cell line clone #25 (p97 P500T); assay: GI50 fold-change, resistant clone #25 vs parental; format: cell-based, human; details: Clone #25, Hct116, resistance generated with compound 4, C1498A / P500T; 72 hrs
Method: as §1

[6] = test system: Hct116 resistant cell line clone #42 (p97 P472A); assay: GI50 fold-change, resistant clone #42 vs parental; format: cell-based, human; details: Clone #42, Hct116, resistance generated with compound 4, C1414G / P472A; 72 hrs
Method: as §1

[7] = test system: Hct116 resistant cell line clone #11 (p97 E470D); details: Clone #11, Hct116, resistance generated with compound 3, G1410T / E470D; 72 hrs
[8] = test system: Hct116 resistant cell line clone #2 (p97 V474A); assay: GI50 fold-change, resistant clone #2 vs parental; format: cell-based, human; details: Clone #2, Hct116, resistance generated with compound 2, T1421C / V474A; 72 hrs
Method: as §1

[9] = test system: DLD-1 resistant cell line clone #82 (p97 A569A/T); assay: GI50 fold-change, resistant clone #82 vs parental; format: cell-based, human; details: Clone #82, DLD-1, resistance generated with compound 4, G1705G/A / A569A/T; 72 hrs
Method: as §2

[10] = test system: Hct116 resistant cell line clone #8 (p97 N660D); assay: GI50 fold-change, resistant clone #8 vs parental; format: cell-based, human; details: Clone #8, Hct116, resistance generated with compound 3, A1978G / N660D; 72 hrs
Method: as §1

[11] = test system: Hct116 resistant cell line clone #29 (p97 N660K); assay: GI50 fold-change, resistant clone #29 vs parental; format: cell-based, human; details: Clone #29, Hct116, resistance generated with compound 4, C1980A / N660K; 72 hrs
Method: as §2

[12] = test system: Hct116 resistant cell line clone #207 (p97 V485D); assay: GI50 fold-change, resistant clone #207 vs parental; format: cell-based, human; details: Clone #207, Hct116, resistance generated with compound 4, T1454A / V485D; 72 hrs
Method: as §1

[13] = test system: Hct116 resistant cell line clone #137 (p97 T475I); assay: GI50 fold-change, resistant clone #137 vs parental; format: cell-based, human; details: Clone #137, Hct116, resistance generated with compound 4, C1424T / T475I; 72 hrs
Method: as §1

[14] = test system: Hct116 resistant cell line clone #27 (p97 T688A); assay: GI50 fold-change, resistant clone #27 vs parental; format: cell-based, human; details: Clone #27, Hct116, resistance generated with compound 4, A2062G / T688A; 72 hrs
Method: as §2

[15] = test system: Hct116 resistant cell line clone #33 (p97 P472L); assay: GI50 fold-change, resistant clone #33 vs parental; format: cell-based, human; details: Clone #33, Hct116, resistance generated with compound 4, C1415T / P472L; 72 hrs
Method: as §2

[16] = test system: Hct116 resistant cell line clone #139 (p97 P472S); assay: GI50 fold-change, resistant clone #139 vs parental; format: cell-based, human; details: Clone #139, Hct116, resistance generated with compound 4, C1414T / P472S; 72 hrs
Method: as §1

p97 Q473P = target: T1, p97 Q473P (Homo sapiens, UniProt P55072, Q473P); assay: Biochemical ATPase assay, mutant p97 vs WT; details: recombinant p97 with Q473P mutation
T1 construct: His-tag; made in house; host or cells: E. coli B121[DE3]; (so in the source)
Method: (§3) Proteins were expressed in the B121[DE3] strain of E. coli and purified using His-tag mediated nickel purification and gel filtration chromatography.
(§4) ATPase activity of p97 was measured using an ATP regenerating enzymatic system that couples the conversion of phosphoenolpyruvate (PEP) to pyruvate by pyruvate kinase with ADP conversion to ATP. Pyruvate is then converted to lactate by lactate dehydrogenase, which is coupled to the conversion of NADH to NAD^+. The loss of NADH is measured by a decrease in optical absorbance as […] allowing for real-time measurement of ATPase activity. Dose titrations of a test compound were added to the p97 ATPase assay and ATPase activity was monitored. The rate of ATPase activity was fit to four-parameter sigmoidal curve to calculate IC50 of test compound. IC50 values of test compounds for wild type p97 were compared to IC50 values of mutant proteins to identify fold-changes in the potency of test compounds for mutant p97.

p97 A659T = target: T2, p97 A659T (Homo sapiens, UniProt P55072, A659T); assay: Biochemical ATPase assay, mutant p97 vs WT; details: recombinant p97 with A659T mutation
T2 construct: His-tag; made in house; host or cells: E. coli B121[DE3]; (so in the source)
Method: as §3, §4

p97 G481A = target: T3, p97 G481A (Homo sapiens, UniProt P55072, G481A); assay: Biochemical ATPase assay, mutant p97 vs WT; details: recombinant p97 with G481A mutation
T3 construct: His-tag; made in house; host or cells: E. coli B121[DE3]; (so in the source)
Method: as §3, §4

p97 D649A = target: T4, p97 D649A (Homo sapiens, UniProt P55072, D649A); assay: Biochemical ATPase assay, mutant p97 vs WT; details: recombinant p97 with D649A mutation
T4 construct: His-tag; made in house; host or cells: E. coli B121[DE3]; (so in the source)
Method: as §3, §4

p97 E470D = target: T5, p97 E470D (Homo sapiens, UniProt P55072, E470D); assay: Biochemical ATPase assay, mutant p97 vs WT; details: recombinant p97 with E470D mutation
T5 construct: His-tag; made in house; host or cells: E. coli B121[DE3]; (so in the source)
Method: as §3, §4

p97 T688A = target: T6, p97 T688A (Homo sapiens, UniProt P55072, T688A); assay: Biochemical ATPase assay, mutant p97 vs WT; details: recombinant p97 with T688A mutation
T6 construct: His-tag; made in house; host or cells: E. coli B121[DE3]; (so in the source)
Method: as §3, §4

[17] = test system: Hct116 resistant cell line clone #180 (p97 A569T); assay: GI50 fold-change, resistant clone #180 vs parental; format: cell-based, human; details: Clone #180, Hct116, resistance generated with compound 4, G1705A / A569T; 72 hrs
Method: as §1

[18] = test system: Hct116 resistant cell line clone #7 (p97 A659T); details: Clone #7, Hct116, resistance generated with compound 3, G1975A / A659T; 72 hrs
[19] = test system: Hct116 resistant cell line clone #5 (p97 D649A); details: Clone #5, Hct116, resistance generated with compound 2, A1946C / D649A; 72 hrs
[20] = test system: Hct116 resistant cell line clone #31 (p97 C535Y); assay: GI50 fold-change, resistant clone #31 vs parental; format: cell-based, human; details: Clone #31, Hct116, resistance generated with compound 4, G1604A / C535Y; 72 hrs
Method: as §1

[21] = test system: Hct116 resistant cell line clone #45 (p97 F539I); assay: GI50 fold-change, resistant clone #45 vs parental; format: cell-based, human; details: Clone #45, Hct116, resistance generated with compound 4, T1615A / F539I; 72 hrs
Method: as §1

[22] = test system: Hct116 resistant cell line clone #117 (p97 L482I); assay: GI50 fold-change, resistant clone #117 vs parental; format: cell-based, human; details: Clone #117, Hct116, resistance generated with compound 4, C1444A / L482I; 72 hrs
Method: as §1

[23] = test system: Hct116 resistant cell line clone #47 (p97 E498D); assay: GI50 fold-change, resistant clone #47 vs parental; format: cell-based, human; details: Clone #47, Hct116, resistance generated with compound 4, G1494T / E498D; 72 hrs
Method: as §1

[24] = test system: Hct116 resistant cell line clone #34 (p97 E470D/E); assay: GI50 fold-change, resistant clone #34 vs parental; format: cell-based, human; details: Clone #34, Hct116, resistance generated with compound 4, G1410T/G / E470D/E; 72 hrs
Method: as §2

[25] = test system: Hct116 resistant cell line clone #30 (p97 F516L); assay: GI50 fold-change, resistant clone #30 vs parental; format: cell-based, human; details: Clone #30, Hct116, resistance generated with compound 4, T1546C / F516L; 72 hrs
Method: as §1

[26] = test system: Hct116 resistant cell line clone #1 (p97 D649N); assay: GI50 fold-change, resistant clone #1 vs parental; format: cell-based, human; details: Clone #1, Hct116, resistance generated with compound 2, G1945A / D649N; 72 hrs
Method: as §1

SMILES | Fold Change in GI50 Compared to Parental Cell Line [2] | Fold Change in GI50 Compared to Parental Cell Line [3] | Fold Change in GI50 Compared to Parental Cell Line [4] | Fold Change in GI50 Compared to Parental Cell Line [7] | Fold Change in GI50 Compared to Parental Cell Line [8] | Fold Change in GI50 Compared to Parental Cell Line [10] | Fold Change in GI50 Compared to Parental Cell Line [11] | Fold Change in GI50 Compared to Parental Cell Line [12] | Fold Change in GI50 Compared to Parental Cell Line [13] | Fold Change in GI50 Compared to Parental Cell Line [14] | Fold Change in GI50 Compared to Parental Cell Line [15] | Fold Change in IC50 compared to WT Protein (p97 Q473P) | Fold Change in IC50 compared to WT Protein (p97 A659T) | Fold Change in IC50 compared to WT Protein (p97 G481A) | Fold Change in IC50 compared to WT Protein (p97 D649A) | Fold Change in IC50 compared to WT Protein (p97 E470D) | Fold Change in GI50 Compared to Parental Cell Line [17] | Fold Change in GI50 Compared to Parental Cell Line [18] | Fold Change in GI50 Compared to Parental Cell Line [19] | Fold Change in GI50 Compared to Parental Cell Line [20] | other results
COc1nc2ccccc2n1-c1nc2c(c(NCc3ccccc3)n1)CCCC2 [Compound 2, N-benzyl-2-(2-methoxy-1H-1,3-benzodiazol-1-yl)-5,6,7,8-tetrahydroquinazolin-4-amine] | 1.9 fold | 3.1 fold | 5.4 fold | 4.0 fold | 5.5 fold | 1.8 fold | 3.4 fold | 7.0 fold | 1.6 fold | 1.6 fold | 5.8 fold | 1.6 fold | 2.8 fold | 1.9 fold | 2.8 fold | 3.1 fold | 2.7 fold | 3.5 fold | 7.3 fold | 3.0 fold | Fold Change in GI50 Compared to Parental Cell Line [1]: 5.0 fold; Fold Change in GI50 Compared to Parental Cell Line [5]: 1.9 fold; Fold Change in GI50 Compared to Parental Cell Line [6]: 3.6 fold; Fold Change in GI50 Compared to Parental Cell Line [9]: 2.8 fold; Fold Change in GI50 Compared to Parental Cell Line [16]: 2.8 fold; Fold Change in IC50 compared to WT Protein (p97 T688A): 8.8 fold; Fold Change in GI50 Compared to Parental Cell Line [21]: 3.1 fold; Fold Change in GI50 Compared to Parental Cell Line [22]: 2.6 fold; Fold Change in GI50 Compared to Parental Cell Line [23]: 1.8 fold; Fold Change in GI50 Compared to Parental Cell Line [24]: 3.0 fold; Fold Change in GI50 Compared to Parental Cell Line [25]: 5.4 fold
Cc1cc2c(C(N)=O)cccc2n1-c1nc2c(c(NCc3ccccc3)n1)CNCC2 [Compound 3, 1-[4-(benzylamino)-5H,6H,7H,8H-pyrido[4,3-d]pyrimidin-2-yl]-2-methyl-1H-indole-4-carboxamide] | 2.5 fold | 6.8 fold | 27.6 fold | 5.0 fold | 11.9 fold | 2.5 fold | 19.3 fold | 27.9 fold | 2.6 fold | 50.3 fold | 11.6 fold | 2.5 fold | 18.2 fold | 8.2 fold | 7.0 fold | 6.4 fold | 5.1 fold | 6.3 fold | 21.3 fold | 6.4 fold | Fold Change in GI50 Compared to Parental Cell Line [26]: 22.6 fold; Fold Change in GI50 Compared to Parental Cell Line [23]: 2.6 fold; Fold Change in GI50 Compared to Parental Cell Line [24]: 3.8 fold

— patent publication US20170159101A1, “DRUG-RESISTANT P97 ATPASE MUTATIONS” (Cleave Biosciences, Inc., priority 2014, published 2017)
